The target of the assay is GluR4 AMPA receptor (histag-ΔN*-AMPA-S653C) (Rattus norvegicus, UniProt P19493, C447S/C550S/P403Q/S674C). The assay is described as follows: biochemical.

Amino acid sequences for entries named in this document (tags omitted). Residues count along the entry.
UniProt P19493, 403-902 P403Q/C447S/C550S/S674C: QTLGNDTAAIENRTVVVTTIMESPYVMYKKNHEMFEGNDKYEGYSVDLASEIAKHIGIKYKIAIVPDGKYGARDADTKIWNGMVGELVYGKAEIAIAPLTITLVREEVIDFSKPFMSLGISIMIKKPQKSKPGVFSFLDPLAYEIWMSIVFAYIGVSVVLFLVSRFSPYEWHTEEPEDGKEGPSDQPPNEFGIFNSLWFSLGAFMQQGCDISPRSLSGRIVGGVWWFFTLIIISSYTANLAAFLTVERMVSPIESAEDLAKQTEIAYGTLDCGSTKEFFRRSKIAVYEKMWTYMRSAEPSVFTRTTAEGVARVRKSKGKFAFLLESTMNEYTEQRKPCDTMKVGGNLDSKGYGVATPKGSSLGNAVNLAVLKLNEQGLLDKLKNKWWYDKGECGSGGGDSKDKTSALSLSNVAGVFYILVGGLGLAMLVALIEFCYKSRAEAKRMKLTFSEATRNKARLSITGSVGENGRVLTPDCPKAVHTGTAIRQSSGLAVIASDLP

Molecule `Cc1onc(O)c1CC(N)C(=O)O` (stereo not drawn) [AMPA, α-amino-5-methyl-3-hydroxy-4-isoxazolepropionic acid] had a Kd of 0.088 ± 0.01 µM.

Source of the values: paper PMC2630883 (Biochemistry, 2008).
